The text below walks through data of publication PMC11284788, “NN1213 – A Potent, Long-Acting, and Selective Analog of Human Amylin” (Journal of Medicinal Chemistry, 2024).

By UniProt entry, the sequences of proteins in these tests, tags left out. Residues count along the entry.
UniProt O60894, 27-148 partner: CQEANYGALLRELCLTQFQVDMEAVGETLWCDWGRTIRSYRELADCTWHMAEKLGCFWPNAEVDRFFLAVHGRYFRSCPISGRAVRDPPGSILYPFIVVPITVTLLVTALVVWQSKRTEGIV

The target of experiment [1] is T1, rAMY3R (Rattus norvegicus, UniProt P32214+Q9JJ73).
T1 sequence (P32214 25-479 isoform P32214-2 limits assumed): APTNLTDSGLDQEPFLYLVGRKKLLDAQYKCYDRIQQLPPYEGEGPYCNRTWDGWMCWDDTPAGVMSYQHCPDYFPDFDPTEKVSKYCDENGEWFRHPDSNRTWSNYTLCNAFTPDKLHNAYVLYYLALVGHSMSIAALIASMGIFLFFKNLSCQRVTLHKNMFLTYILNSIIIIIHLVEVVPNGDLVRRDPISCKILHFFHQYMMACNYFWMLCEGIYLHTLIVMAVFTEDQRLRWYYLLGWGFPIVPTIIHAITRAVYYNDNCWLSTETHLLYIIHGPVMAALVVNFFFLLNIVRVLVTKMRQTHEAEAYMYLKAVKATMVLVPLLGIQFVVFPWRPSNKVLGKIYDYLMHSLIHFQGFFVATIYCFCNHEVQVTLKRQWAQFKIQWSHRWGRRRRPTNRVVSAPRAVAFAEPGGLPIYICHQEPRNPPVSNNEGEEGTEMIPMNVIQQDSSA
T1 sequence (Q9JJ73 23-147 partner): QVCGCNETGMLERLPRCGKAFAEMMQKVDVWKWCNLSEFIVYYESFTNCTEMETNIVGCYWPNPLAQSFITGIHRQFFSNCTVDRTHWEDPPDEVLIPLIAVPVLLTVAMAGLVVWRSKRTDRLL
In words: Whole-cell competition binding, rAMY3R. Details: expressed in transfected cells; host or cells: BHK tk-ts 13, transient co-transfection (FuGENE 6). As to conditions: IC50 for the CTR divided by that of the AMYR, rat receptors.

In experiment [2] the target is T1, rAMY3R. In words: Species-specific cAMP assay, rAMY3R.
Experiment [3] addresses T2, hAMY3R (Homo sapiens, UniProt O60896+P30988).
T2 sequence (P30988 25-474): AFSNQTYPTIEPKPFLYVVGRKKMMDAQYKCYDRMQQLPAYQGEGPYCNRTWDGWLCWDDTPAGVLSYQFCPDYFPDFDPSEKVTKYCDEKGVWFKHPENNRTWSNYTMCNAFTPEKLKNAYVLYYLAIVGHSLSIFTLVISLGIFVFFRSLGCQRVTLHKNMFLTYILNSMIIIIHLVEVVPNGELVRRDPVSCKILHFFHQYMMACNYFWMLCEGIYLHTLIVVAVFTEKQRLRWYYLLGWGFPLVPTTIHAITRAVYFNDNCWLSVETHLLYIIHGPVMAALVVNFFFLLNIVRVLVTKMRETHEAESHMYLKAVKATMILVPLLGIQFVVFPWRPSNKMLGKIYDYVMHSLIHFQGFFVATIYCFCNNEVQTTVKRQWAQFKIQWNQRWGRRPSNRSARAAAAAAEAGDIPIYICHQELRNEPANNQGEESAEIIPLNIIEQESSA
T2 sequence (O60896 24-148 partner): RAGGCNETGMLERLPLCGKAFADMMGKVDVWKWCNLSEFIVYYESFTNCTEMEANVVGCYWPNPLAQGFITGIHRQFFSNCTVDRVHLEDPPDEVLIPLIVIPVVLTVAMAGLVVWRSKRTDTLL
In words: scintillation proximity binding assay, hAMY3R membranes. Set-up: expressed in transfected cells; host or cells: BHK tk-ts 13, transient co-transfection; membranes for the SPA, whole cells for the species-specific assays. The conditions noted are these: ratio of binding IC50 values. As to the method: (§1) The apparent binding affinities were determined using a scintillation proximity assay with beads from PerkinElmer and cell membranes containing the AMY3R or CTRs. […] Membranes were harvested and membranes were prepared and kept at −80 °C until use. The assay was performed in a 384-well Optiplate (PerkinElmer). Membranes were mixed with scintillation proximity assay beads in a 1:1 ratio. […] Samples were analyzed on a TopCounter (Packard). The IC50 values were calculated using GraphPad Prism. See Supporting Information S7: SAR Screening Assay Methods (Binding Assays (Human and Rat)) for more information.
(§2) Binding Assays (Human and Rat). Brief descriptions of the methods used to determine binding affinities for SAR analysis are described below. Curves and IC50 values were plotted and calculated in GraphPad Prism using nonlinear regression (one site binding competition analysis), with pIC50 values […]
(§3) containing 20 mM Na-HEPES and 0.1 mM EDTA (pH 7.4, buffer 2). The resulting pellet was re-suspended in buffer 2 and protein concentration was measured (BCA protein assay, Pierce). […]
(§4) prior to centrifugation (1500 rpm, 10 min). Samples were analyzed on TopCounter (Packard). […]
(§5) 7.4, buffer 2). The resulting pellet was re-suspended in buffer 2 and protein concentration was measured (BCA protein assay, Pierce). […]
Background: In a scintillation proximity assay essentially only radioactivity close to the scintillant gives light.

Experiment [4] concerns the target T3, hAMY1R (Homo sapiens, UniProt O60894+P30988). Nature of the experiment: Whole-cell competition binding, hAMY1R. Details: expressed in transfected cells; host or cells: BHK tk-ts 13, transient co-transfection (FuGENE 6). As to conditions: IC50 for the CTR divided by that of the AMYR, human receptors.
The target of experiment [5] is T2, hAMY3R. In words: Species-specific cAMP assay, hAMY3R. (Cyclic AMP is a second messenger, typically raised through Gs and lowered through Gi signalling.)
Experiment [6] deals with T4, rAMY1R (Rattus norvegicus, UniProt P32214+Q9JJ74).
T4 sequence (P32214 25-516): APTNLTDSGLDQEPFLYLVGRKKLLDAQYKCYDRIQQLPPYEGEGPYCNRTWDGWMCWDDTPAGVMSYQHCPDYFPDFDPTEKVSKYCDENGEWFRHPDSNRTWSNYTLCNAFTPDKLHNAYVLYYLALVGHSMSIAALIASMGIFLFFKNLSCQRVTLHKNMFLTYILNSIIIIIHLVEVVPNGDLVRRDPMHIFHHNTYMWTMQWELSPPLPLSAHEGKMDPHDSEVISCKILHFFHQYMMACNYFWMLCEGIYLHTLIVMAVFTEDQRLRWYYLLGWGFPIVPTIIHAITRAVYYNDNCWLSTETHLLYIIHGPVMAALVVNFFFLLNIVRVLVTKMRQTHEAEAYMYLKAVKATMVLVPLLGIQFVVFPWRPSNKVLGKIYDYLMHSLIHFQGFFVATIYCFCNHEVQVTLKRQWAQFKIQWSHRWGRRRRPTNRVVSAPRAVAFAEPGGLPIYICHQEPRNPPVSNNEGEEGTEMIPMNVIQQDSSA
T4 sequence (Q9JJ74 27-148 partner): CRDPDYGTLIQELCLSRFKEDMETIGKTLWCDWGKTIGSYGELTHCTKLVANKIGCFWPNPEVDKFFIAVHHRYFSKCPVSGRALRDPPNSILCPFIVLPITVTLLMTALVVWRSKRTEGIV
Nature of the experiment: Whole-cell competition binding, rAMY1R. Details: expressed in transfected cells; host or cells: BHK tk-ts 13 cells, transient, FuGENE 6. The conditions noted are these: IC50 for the CTR divided by that of the AMYR, rat receptors.

In experiment [7] the target is T1, rAMY3R. Nature of the experiment: scintillation proximity binding assay, rAMY3R membranes. Details: expressed in transfected cells; host or cells: BHK tk-ts 13, transient co-transfection (FuGENE 6). As to conditions: ratio of binding IC50 values. As to the method:
as §1, §2, §3, §4, §5

Another experiment deals with T5, rCTR (Rattus norvegicus, UniProt P32214).
T5 sequence (P32214 25-479 isoform P32214-2 limits assumed): T1 sequence (P32214 25-479 isoform P32214-2 limits assumed)
Nature of the experiment: Species-specific cAMP assay, rCTR.

The target in another experiment is T6, rat AMY3R (Rattus norvegicus, UniProt P32214+Q9JJ73).
T6 construct: expressed in transfected cells; host or cells: BHK tk-ts 13, transient co-transfection (FuGENE 6)
T6 sequence (P32214 25-479 isoform P32214-2 limits assumed): T1 sequence (P32214 25-479 isoform P32214-2 limits assumed)
T6 sequence (Q9JJ73 23-147 partner): T1 sequence (Q9JJ73 23-147 partner)
Nature of the experiment: cAMP FlashPlate assay, rat AMY3R. It counts as cell-based. The conditions noted are these: ratio of cAMP EC50 values.

The target in experiment [8] is T3, hAMY1R. In words: Species-specific cAMP assay, hAMY1R.
Experiment [9] addresses T4, rAMY1R. In words: Species-specific cAMP assay, rAMY1R.
Experiment [10] concerns the target T2, hAMY3R. In words: cAMP-responsive element luciferase reporter assay, human AMY3R. The format is cell-based. Set-up: expressed in transfected cells. (In general: In a reporter assay the amount or activity of a reporter protein is the signal.)
For experiment [11], the target named is T2, hAMY3R. Nature of the experiment: Whole-cell competition binding, hAMY3R. Set-up: expressed in transfected cells; host or cells: BHK tk-ts 13, transient co-transfection; whole cells for the species-specific assays. The conditions noted are these: IC50 for the CTR divided by that of the AMYR, human receptors.
A further experiment has as its target T7, hCTR (Homo sapiens, UniProt P30988).
T7 sequence (P30988 25-474): T2 sequence (P30988 25-474)
Nature of the experiment: Species-specific cAMP assay, hCTR.

[12] abbreviates: ratio of cAMP EC50 values, rat receptors.
Where [13] appears, read: ratio of cAMP EC50 values, human receptors.

With `CC[C@H](C)[C@H](NC(=O)[C@@H]1CCCN1C(=O)CNC(=O)[C@H](Cc1ccccc1)NC(=O)[C@H](CC(N)=O)NC(=O)[C@H](CC(N)=O)NC(=O)[C@H](CO)NC(=O)[C@H](CO)NC(=O)[C@H](Cc1c[nH]cn1)NC(=O)[C@@H](NC(=O)[C@H](CC(C)C)NC(=O)[C@H](Cc1ccccc1)NC(=O)[C@H](CC(N)=O)NC(=O)[C@H](C)NC(=O)[C@H](CC(C)C)NC(=O)[C@H](CCCNC(=N)N)NC(=O)[C@H](CCC(N)=O)NC(=O)[C@@H](NC(=O)[C@H](C)NC(=O)[C@@H]1CSSC[C@H](NC(=O)[C@@H](N)CCCCN)C(=O)N[C@@H](CC(N)=O)C(=O)N[C@@H]([C@@H](C)O)C(=O)N[C@@H](C)C(=O)N[C@@H]([C@@H](C)O)C(=O)N1)[C@@H](C)O)C(C)C)C(=O)N[C@@H](CC(C)C)C(=O)N1CCC[C@H]1C(=O)N1CCC[C@H]1C(=O)N[C@H](C(=O)N[C@@H](CC(N)=O)C(=O)N[C@H](C(=O)NCC(=O)N[C@@H](CO)C(=O)N[C@@H](CC(N)=O)C(=O)N[C@H](C(=O)N[C@@H](Cc1ccc(O)cc1)C(N)=O)[C@@H](C)O)C(C)C)[C@@H](C)O` [pramlintide, reference compound], the “Ratio CTR/AMY3R (rat, binding)” value at rAMY3R [1] came out at 173. In addition, the EC50 on rAMY3R [2] was 0.00339 nM; on hAMY3R [5], 0.024 nM; at rCTR it was 0.11 nM; on hAMY1R [8] it was 0.0759 nM; on rAMY1R [9] it was 0.00457 nM; on hAMY3R [10] (luciferase (human receptor assay), Tables S12 and S14, read-out: hAMY3R pEC50 (converted)) it was 0.0049 nM. For the same molecule, the EC50 on hCTR was 0.372 nM. The “Ratio CTR/AMY3R (rat, functional)” value on rAMY3R [2] (setting [12]) is listed as 32. Moreover, the “ratio hCTR/hAMY3R” value is reported as 13 on hAMY3R [3] and 14 on hAMY3R [10] (ratio of luciferase EC50 values). The “Ratio CTR/AMY1R (human, binding)” value at hAMY1R [4] is listed as 117. Besides, the “Ratio CTR/AMY3R (human, functional)” value at hAMY3R [5] (setting [13]) worked out at 16. The “Ratio CTR/AMY1R (rat, binding)” value at rAMY1R [6] stood at 871. Also, the “ratio rCTR/rAMY3R” value on rAMY3R [7] is listed as 48; at rat AMY3R, 455. Also, on hAMY1R [8] (setting [13]), the “Ratio CTR/AMY1R (human, functional)” value is 5. Further, the “Ratio CTR/AMY1R (rat, functional)” value on rAMY1R [9] (setting [12]) is reported as 24. Also, the “Ratio CTR/AMY3R (human, binding)” value on hAMY3R [11] worked out at 134.
